Assay results from patent US20250177383A1, “DI-CYCLOPROPYL BASED IL-17A MODULATORS AND USES THEREOF” (DICE ALPHA, INC., priority 2022, published 2025).

Chains of the proteins cited; added tags and fusions are not shown. Residues count along the entry.
UniProt Q16552, 24-155 limits assumed: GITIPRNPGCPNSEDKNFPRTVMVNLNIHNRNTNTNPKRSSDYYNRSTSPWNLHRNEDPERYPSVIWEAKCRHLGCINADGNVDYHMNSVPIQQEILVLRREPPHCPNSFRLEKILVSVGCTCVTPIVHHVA
UniProt Q96PD4, 31-163 limits assumed: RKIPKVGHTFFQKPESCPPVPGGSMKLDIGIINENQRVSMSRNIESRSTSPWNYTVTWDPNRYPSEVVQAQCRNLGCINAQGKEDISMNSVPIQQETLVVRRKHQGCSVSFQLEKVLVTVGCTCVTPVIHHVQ

Columns and labels:
IL-17A/A = IL-17A/A (Homo sapiens, UniProt Q16552); assay: IL-17A/A HEK-Blue Cell Assay; conditions: HEK-Blue IL-17 reporter cells, IL-17A/A stimulation, 20 hours, SEAP readout
IL-17A/F = IL-17A/F (Homo sapiens, UniProt Q16552+Q96PD4); assay: IL-17A/F HEK-Blue Cell Assay; conditions: HEK-Blue IL-17 reporter cells, IL-17A/F stimulation, 20 hours, SEAP readout

IL17AF HEK Blue pIC50 (IL-17A/F) | Compound | IL17 AA HEK-5 pIC50 (IL-17A/A)
C (7>C≥5) | CO[C@@H](C)C(=O)N[C@@H](C(=O)N1CCN(C)C(CF)C1)[C@@H](C)c1ccc(NC(=O)[C@@H](NC(=O)C2(F)CC2)C(C2CC2)C2CC2)c(F)c1 (single isomer, unassigned) | A (pIC50 of greater than or equal 8 as A)
B (8>B≥7 as B) | CCOC(=O)N[C@@H](C)C(=O)N[C@@H](C(=O)N1CCN(C)[C@H](C)C1)[C@@H](C)c1ccc(NC(=O)[C@@H](NC(=O)c2nonc2C)C(C2CC2)C2CC2)c(F)c1 | A (pIC50 of greater than or equal 8 as A)
C (7>C≥5) | CCn1nccc1C(=O)N[C@H](C(=O)Nc1ccc([C@H](C)[C@@H](NC(=O)C(C)OCCOC)C(=O)N2CCN(C)[C@H](C)C2)cc1F)C(C1CC1)C1CC1 (single isomer, unassigned) | A (pIC50 of greater than or equal 8 as A)
C (7>C≥5) | CCOC(=O)N1CCC[C@H]1C(=O)N[C@@H](C(=O)N1CCN(C)CC1)[C@@H](C)c1ccc(NC(=O)[C@@H](NC(=O)C2(F)CC2)C(C2CC2)C2CC2)c(F)c1 | A (pIC50 of greater than or equal 8 as A)
C (7>C≥5) | CCC(=O)NC(C(=O)N1CCN(C)CC1)C(c1ccc(NC(=O)[C@@H](NC(=O)c2ccnn2CC)C(C2CC2)C2CC2)c(F)c1)C(F)(F)F (single isomer, unassigned) | C (7>C≥5)
